In US9987369B2, “Vitamin functionalized gel-forming block copolymers for biomedical applications” (INTERNATIONAL BUSINESS MACHINES CORPORATION, priority 2016, dated 2018):

How the values were obtained:
[1] = test system: HER2/neu-overexpressing human breast cancer BT474 cells; test: cytotoxicity of herceptin delivered by hydrogels (MTT); format: cell-based; settings: 120 hours treatment
[2] = test system: BT474 tumor; test: in vivo anti-tumor efficacy; parameters: species or system mice; settings: 4×10 mg/kg weekly
Protocol: Female BALB/c nude mice, weighing 18 g to 22 g were injected subcutaneously with 200 microliters of a cell suspension (1:1 with Matrigel) (BD Biosciences, U.S.A.) containing 5×10^6 BT474 cells. Three weeks after inoculation (when the tumor volume was 100 mm^3 to 120 mm^3), the tumor-bearing mice were randomly divided into several groups (7 to 10 mice per group).
All mice were injected only once on the first day of treatment (Day 0).
The tumor size was measured by calipers in two orthogonal diameters and the volume was calculated as L×W2/2, where L and W are the major and minor diameters respectively. At the end of the treatment, a two-tailed Student's t test was used to statistically evaluate the difference in tumor volume and P<0.05 was considered to indicate a statistically significant difference. In addition, the toxicities of the different formulations were evaluated by monitoring the change in mouse body weight over the course of treatment.

[3] = test system: BT474 tumor; test: histological analysis of tumors (TUNEL, H&E); format: in vivo, mice; settings: 28 days after one injection, 30 mg/kg
Excerpt: For histological examination, the samples were fixed in 4% neutral buffered formalin and then stained with hematoxylin/eosin (H&E) using standard techniques. Apoptotic cells of tumor samples were identified using Terminal Transferase dUTP Nick-End Labeling (TUNEL) assay. The slides were counterstained with hematoxylin to visualize nuclei and examined using a stereomicroscope (Nikon, U.S.A.).

herceptin solution: herceptin dissolved using sterile HPLC grade water
IC50 of herceptin [1]: < 5 µg/mL
tumor shrinkage by the end of the treatment ([2]; solution intravenous): 32%
tumor size over the course of treatment ([2]; solution subcutaneous, ~4 cm away from tumor): remained similar in size

herceptin: recombinant humanized mAb that can selectively bind to HER2 proteins
TUNEL staining of tumor cells [3]: mostly apoptotic
